This note sets out measurements from publication PMC8484483 (Scientific Reports, 2021).

Amino acid sequences for entries named in this document (tags omitted). Residues count along the entry.
UniProt P20333, 23-461: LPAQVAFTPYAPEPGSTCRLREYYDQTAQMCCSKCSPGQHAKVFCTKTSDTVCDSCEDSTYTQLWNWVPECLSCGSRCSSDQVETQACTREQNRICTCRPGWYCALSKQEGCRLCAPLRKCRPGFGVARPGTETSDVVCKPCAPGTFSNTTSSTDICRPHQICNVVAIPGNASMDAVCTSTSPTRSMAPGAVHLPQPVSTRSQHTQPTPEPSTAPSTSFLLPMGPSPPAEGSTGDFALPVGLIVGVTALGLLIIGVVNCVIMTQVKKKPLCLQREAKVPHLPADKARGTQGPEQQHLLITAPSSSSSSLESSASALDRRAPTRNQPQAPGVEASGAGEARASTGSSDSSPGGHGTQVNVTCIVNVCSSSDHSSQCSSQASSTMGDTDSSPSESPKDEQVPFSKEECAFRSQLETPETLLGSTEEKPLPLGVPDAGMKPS
UniProt P28908, 19-595: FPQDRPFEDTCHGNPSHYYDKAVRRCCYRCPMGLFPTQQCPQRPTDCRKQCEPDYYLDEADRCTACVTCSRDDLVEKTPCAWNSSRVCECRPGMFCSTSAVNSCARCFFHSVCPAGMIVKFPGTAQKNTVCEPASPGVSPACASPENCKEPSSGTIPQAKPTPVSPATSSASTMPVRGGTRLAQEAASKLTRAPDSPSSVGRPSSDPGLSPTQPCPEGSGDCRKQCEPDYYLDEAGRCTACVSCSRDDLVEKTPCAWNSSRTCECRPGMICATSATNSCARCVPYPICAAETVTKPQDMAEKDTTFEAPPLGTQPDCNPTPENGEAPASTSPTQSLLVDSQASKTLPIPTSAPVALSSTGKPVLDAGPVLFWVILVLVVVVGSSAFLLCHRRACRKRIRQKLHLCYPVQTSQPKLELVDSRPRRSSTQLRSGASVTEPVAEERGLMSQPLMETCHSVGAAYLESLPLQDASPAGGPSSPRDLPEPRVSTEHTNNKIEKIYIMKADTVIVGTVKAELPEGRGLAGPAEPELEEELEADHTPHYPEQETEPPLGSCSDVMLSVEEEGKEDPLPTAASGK

The target of experiment [1] is T1, TNFR2 on TNFR2-transfected Ramos Blue cells (human, UniProt P20333).
T1 construct: for the full-length cDNA no species is named; also called TNFR2-RB; TNFR2-expressing cells; source: Ramos-Blue cells, stably transfected (blasticidin, sorting, cloning), on cells
Put plainly: flow cytometry on cells; antigen-expressing Ramos-Blue cells incubated with mAbs or BsAb in PBS, 5% fetal bovine serum, 0.1% sodium azide, 1 h on ice; detected with R-PE anti-human IgG Fc-gamma. The settings on record: one partner purified. On the technique in general: A flow cytometer gives signals particle by particle.

The target in experiment [2] is T2, CD30 on CD30-expressing cells (Homo sapiens, UniProt P28908).
T2 construct: CD30 expressed on CD30-RB cells; construct not described; the methods describe only how the TNFR2 cells were made; also called CD30-RB; source: CD30-expressing cells (CD30-RB), on cells
Described as above. The settings on record: one partner purified.

B1: anti-TNFR2 TR109, human chimeric monoclonal antibody (antibody, V domains shown)
VH: QVQLKESGPGLVAPSQSLSITCTVSGFSLTVYGVNWVRQPPGKGLEWLGMIWGDGSTAYNSALKSRLTITKDNSKTQVFLKMNSLQTDDTARYYCARDGRRYALDYWGQGTSVTVSS
VL: DIVLTQSPTSLAVSLGQRATISCRASESVDSYGDSFLHWYQQKPGQPPILLIYRASNLDSGIPARFSGSGSRTDFTLTINPVEADDVATYYCQQSNEDPYTFGGGTKLEIK
For the molecule B1, the binding result in experiment [1] is “binds”.

B2: anti-CD30 T104, human chimeric monoclonal antibody (antibody, V domains shown)
VH: QIQLVQSGPELKKPGETVKISCKASGYTFTDYSMHWVKQAPGKGLKWMGWINTETGEPTYADDFKGRFAFSLETSASTAYLQINNLKNEDTATYFCTEGYVFDFWGQGTTLTVSS
VL: DILLTQSPAILSVSPGERVSFSCRASRSIGTSIHWYQQRTNGSPRLLINYASESISGIPSRFSGSGSGTDFTLSINSVESEDIADYYCQQSNSWPLTFGAGTKLELK
Turning to B2, in experiment [2], the binding result is “binds”.
